Biological target: T1, PAPD5 (Homo sapiens, UniProt Q8NDF8)
T1 construct: made in house
Assay: High-throughput luminescence (KinaseGlo) RNA polyadenylation assay, ATP utilization by recombinant PAPD5
Assay type: biochemical

The chains behind the UniProt entries cited, without tags or fusion partners. Residues count along the entry.
UniProt Q8NDF8, 68-698 isoform Q8NDF8-5: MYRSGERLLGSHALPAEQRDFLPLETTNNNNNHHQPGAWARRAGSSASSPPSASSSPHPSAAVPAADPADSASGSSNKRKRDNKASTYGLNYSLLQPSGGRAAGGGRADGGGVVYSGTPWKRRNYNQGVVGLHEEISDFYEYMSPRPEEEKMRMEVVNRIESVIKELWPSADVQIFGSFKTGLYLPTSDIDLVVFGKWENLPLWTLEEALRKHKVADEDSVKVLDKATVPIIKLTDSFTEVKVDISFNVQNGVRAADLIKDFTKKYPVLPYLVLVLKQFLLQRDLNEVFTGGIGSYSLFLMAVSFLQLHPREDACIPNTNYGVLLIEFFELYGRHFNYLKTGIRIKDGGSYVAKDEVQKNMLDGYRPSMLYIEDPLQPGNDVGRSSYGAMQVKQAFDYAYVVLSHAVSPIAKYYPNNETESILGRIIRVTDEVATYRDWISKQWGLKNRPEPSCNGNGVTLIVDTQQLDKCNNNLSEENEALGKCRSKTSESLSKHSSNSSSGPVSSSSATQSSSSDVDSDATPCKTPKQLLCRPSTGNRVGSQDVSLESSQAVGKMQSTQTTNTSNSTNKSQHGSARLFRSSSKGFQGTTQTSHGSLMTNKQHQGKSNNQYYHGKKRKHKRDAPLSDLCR

COc1cc(C(=O)NC2CCN(C)CC2)ccc1Nc1ncc2c(n1)N(C1CCCCC1)CCC(=O)N2C [Entry 64, 4-[(9-cyclohexyl-5-methyl-6-oxo-7,8-dihydropyrimido[4,5-b][1,4]diazepin-2-yl)amino]-3-methoxy-N-(1-methylpiperidin-4-yl)benzamide]
Fold-change determined at compound concentration 33 μM: 1.099 | Fold-change determined at compound concentration 100 μM: 1.272

— US12171755B2, “PAPD5 inhibitors and methods of use thereof” (Children's Medical Center Corporation, priority 2017, dated 2024)
